Most compounds without a hit are left out; they make up all but 2.1% or so of the library.
INS-1E GSIS act = GLuc luminescence reporter in INS-1E cells, primary screen for activators of glucose-dependent secretion of insulin; INS-1E GLuc reporter insulin secretion, 2-3 h; activation, % at 16.6 µM; 370,000 tested, 0.61% active;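 active = lowest replicate activation of at least 40%, so every replicate reaches that level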;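 also: 0% = median of neutral control wells and 100% = median of IBMX positive control wells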
UUG fidelity = yeast start codon fidelity modulation; actives 0.13% (n = 350,000); activity score, % at 18.7 µM; S. cerevisiae UUG-firefly luciferase reporter, luminescence/redox ratio;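 active = replicate mean at a twofold rise or more, about +100% in these data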;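 note: firefly luciferase made from a UUG start codon reports start codon fidelity; reporter light over untreated wells divided by growth signal over untreated wells; some hits fall short of that in this replicate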
PDI turbidity = inhibitors of human protein disulfide isomerase | P07237 | PDI insulin aggregation turbidity, A650, 90 min | inhibition, % at 10 µM | 350,000 tested, 0.052% active | AID 588391;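 active = mean inhibition across replicates of 30% or more, whatever share of single replicates reach that level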
NR1D1 modulator = modulates human Rev-erb alpha binding to DNA | P20393 | Rev-erbα–FITC-DNA binding, fluorescence polarization, 90 min | activity, % at 10 µM | 370,000 tested, 0.79% active;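 active = activity above about 14%, limit read from the data; passing the limit was not always enough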;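 also: 0% = DMSO wells with 35 nM protein and 100% = DMSO wells with 750 nM protein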
SMARCA2 act = SMARCA2 function activation, primary screen; AID 652017; 370,000 tested, 1% active; MG213 cells, MMTV-luciferase reporter, dexamethasone, overnight; activation, % at 9.1 µM; in the data active = activation above about 7.8%;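 also: 0% = vehicle wells and 100% = reference activator wells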
ERp5 block = inhibitors of human ERp5; inhibition, % at 9.99 µM; ERp5 insulin aggregation, absorbance 650 nm, 90 min; 350,000 tested, 0.05% active;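 active = mean replicate inhibition above about 25%, with every replicate also reaching it, limit read from the data, passing the limit was not always enough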
Starred values were filed as active, the others as inactive; nt = no result.

Key to letters – A = INS-1E GSIS act; B = UUG fidelity; C = PDI turbidity; D = NR1D1 modulator; E = SMARCA2 act; F = ERp5 block
CCNC(=O)C[C@@H]1CC[C@H]2[C@@H](COc3ccc(NC(=O)c4cccs4)cc3C(=O)N2C)O1
  A: -2.7; B: -22.6; C: nt; D: nt; E: nt; F: -3.6
Cc1ccc(C)c(OCC(=O)Nc2nonc2NC(=O)COc2cc(C)ccc2C)c1
  A: 128.6*; B: 5.4; C: 2.1; D: -0.2; E: -3.6; F: nt
COc1cc(OC)c2c(-c3ccccc3)cc(C3CCCCC3)nc2c1
  A: 42.4*; B: -4.9; C: -9.4; D: -7.5; E: -1.0; F: 4.3
COc1cc(OC)c2c3c(c(C4CCCCC4)nc2c1)CCCC3
  A: -0.4; B: -19.8; C: -4.7; D: 1.7; E: 1.9; F: -0.1
CC(C)NC(=O)N(C)C[C@@H]1Oc2cc(-c3ccncc3)ccc2S(=O)(=O)N([C@H](C)CO)C[C@@H]1C
  A: 6.5; B: -4.3; C: nt; D: nt; E: nt; F: 14.4
CC1(C)CC[C@]2(C(=O)O)CC[C@]3(C)C(=CC[C@@H]4[C@@]5(C)CC[C@H](O[C@@H]6O[C@H](C(=O)O)[C@@H](O)[C@H](O[C@@H]7OC[C@H](O)[C@H](O)[C@H]7O)[C@H]6O)C(C)(C)[C@@H]5CC[C@]43C)[C@@H]2C1
  A: 200.1*; B: 6.4; C: 87.8*; D: -7.2; E: 4.5; F: -0.8
C[C@@H]1CCCCO[C@@H](CN(C)Cc2ccc(C(=O)Nc3ccccc3N)cc2)[C@@H](C)CN([C@H](C)CO)C(=O)c2cc(NS(=O)(=O)c3cccs3)ccc2O1
  A: 26.5; B: nt; C: nt; D: nt; E: nt; F: 70.1*
C[C@@H]1CCCCO[C@H](CN(C)Cc2ccc(C(=O)Nc3ccccc3N)cc2)[C@@H](C)CN([C@H](C)CO)C(=O)c2cc(NS(=O)(=O)c3cccs3)ccc2O1
  A: -2.8; B: -11.2; C: nt; D: nt; E: nt; F: -3.2
C[C@@H]1CCCCO[C@@H](CN(C)C(=O)CCC(F)(F)F)[C@H](C)CN([C@@H](C)CO)C(=O)c2cc(NS(=O)(=O)c3ccc(Cl)cc3)ccc2O1
  A: -2.9; B: nt; C: nt; D: nt; E: nt; F: 63.9*
O=C(C[C@@H]1CC[C@@H](NC(=O)C2CCOCC2)[C@@H](CO)O1)Nc1nccs1
  A: 8.0; B: -10.2; C: nt; D: nt; E: nt; F: -7.7
C[C@@H]1CN([C@H](C)CO)C(=O)c2cc(C#C[C@@H](C)O)cnc2O[C@@H]1CN(C)C(=O)c1ccc(F)cc1
  A: 11.0; B: 5.9; C: nt; D: nt; E: nt; F: 2.0
CO[C@@H]1CN(C)C(=O)c2cc(NS(C)(=O)=O)ccc2OC[C@H](C)N(C(=O)NC(C)C)C[C@@H]1C
  A: 1.0; B: nt; C: nt; D: nt; E: nt; F: nt
CC/C(C)=N\N=C\c1c(O)n(CC)c2cc(C3=NNC(=O)CC3)ccc12
  A: nt; B: -7.1; C: -6.3; D: nt; E: nt; F: nt
CCn1c(O)c(/C=N/N=C/c2ccc(OC)cc2)c2cc(C3=NNC(=O)CC3)ccc21
  A: 65.0*; B: -14.4; C: 1.2; D: -0.2; E: 0.0; F: 20.9
COc1ccc(/C=N/Nc2ccc(C(F)(F)F)cc2[N+](=O)[O-])cc1
  A: 44.5*; B: nt; C: -4.2; D: 0.6; E: -0.3; F: nt

Quoted at random: two compounds from above.
Key to letters – A = INS-1E GSIS act; B = UUG fidelity; C = PDI turbidity; D = NR1D1 modulator; E = SMARCA2 act; F = ERp5 block
COc1cc(OC)c2c3c(c(C4CCCCC4)nc2c1)CCCC3
  A: -0.4; B: -19.8; C: -4.7; D: 1.7; E: 1.9; F: -0.1
O=C(C[C@@H]1CC[C@@H](NC(=O)C2CCOCC2)[C@@H](CO)O1)Nc1nccs1
  A: 8.0; B: -10.2; C: nt; D: nt; E: nt; F: -7.7

Next results:
Key to letters – A = INS-1E GSIS act; B = UUG fidelity; C = PDI turbidity; D = NR1D1 modulator; E = SMARCA2 act; F = ERp5 block
CCCNC(=O)C[C@H]1C[C@@H]2c3cc(NC(=O)Nc4ccccc4)ccc3O[C@@H]2[C@H](CO)O1
  A: -1.1; B: 24.1; C: nt; D: nt; E: nt; F: nt
COC(=O)C1=C(C)N(Cc2ccc(C(F)(F)F)cc2)C(=NCc2ccccc2)NC1c1cccc(Cl)c1 (stereo not drawn)
  A: nt; B: nt; C: nt; D: 0.5; E: -8.2; F: 4.5
COC(=O)C1=C(C)N(Cc2ccc(C(F)(F)F)cc2)C(=NCc2ccccc2)NC1c1ccccc1 (stereo not drawn)
  A: 949.0*; B: nt; C: nt; D: -4.0; E: -9.7; F: 8.1
COC(=O)C1=C(C)N(Cc2ccc(C(F)(F)F)cc2)C(=NCc2ccccc2)NC1c1ccc(C(F)(F)F)cc1 (stereo not drawn)
  A: 459.6*; B: nt; C: nt; D: -4.1; E: -6.9; F: 6.2
COC(=O)C1=C(C)N(Cc2ccc(C(F)(F)F)cc2)C(=NCc2ccccc2C(F)(F)F)NC1c1ccc(C(F)(F)F)cc1 (stereo not drawn)
  A: nt; B: nt; C: nt; D: 1.4; E: 0.7; F: -9.3
C[C@H](CO)N1C[C@H](C)[C@H](CN(C)Cc2ccc(-c3ccccc3)cc2)Oc2c(NS(=O)(=O)c3ccc(Cl)cc3)cccc2C1=O
  A: -28.3; B: 5.9; C: nt; D: nt; E: nt; F: 9.8
CC1(C(=O)NCC2CCCCC2)CCN1CCc1ccccc1 (stereo not drawn)
  A: 80.1*; B: -7.2; C: -2.2; D: -0.7; E: -2.0; F: -0.5
CC(=O)Nc1nc(CC(C)C)cc(-c2ccccc2)c1C#N
  A: 33.9; B: nt; C: 1.4; D: -0.6; E: -1.3; F: 4.2
CC(=O)Nc1nc(CC(C)C)cc(-c2ccco2)c1C#N
  A: 47.9*; B: -11.2; C: -5.5; D: 1.0; E: -3.3; F: nt
Cc1ccc2sc(-c3ccc(NC(=O)c4cc(-n5cnnc5)ccc4Cl)cc3)nc2c1
  A: 119.2*; B: 1.3; C: -5.6; D: -7.2; E: -1.1; F: nt
Cc1nc2ccccc2c(=O)n1CCCN1CCOCC1
  A: 40.3*; B: nt; C: 9.7; D: 6.1; E: -0.3; F: 2.1
C[C@H](CO)N1C[C@H](C)[C@H](CN(C)S(=O)(=O)c2cn(C)cn2)Oc2c(NC(=O)c3cnccn3)cccc2C1=O
  A: -1.4; B: -9.0; C: nt; D: nt; E: nt; F: 4.6
CN(C1=NC(=O)C(CC(=O)Nc2ccc(Br)cc2)S1)c1ccc(O)cc1 (stereo not drawn)
  A: nt; B: -8.2; C: 61.0*; D: 4.8; E: -5.5; F: nt
O=C(CC1SC(=O)N(c2ccccc2)C1=O)Nc1ccc(Br)cc1 (stereo not drawn)
  A: nt; B: -25.6; C: -0.7; D: -5.3; E: 2.9; F: 2.2
O=C1c2cccnc2C(Nc2ccc(F)c(Cl)c2)N1Cc1cccs1 (stereo not drawn)
  A: 66.2*; B: -17.8; C: 2.6; D: 3.3; E: -0.4; F: 1.0
COc1ccc(CN(C)C[C@H]2OCCCC[C@@H](C)Oc3ccc(NC(=O)CCCN(C)C)cc3C(=O)N([C@@H](C)CO)C[C@H]2C)cc1
  A: 1.3; B: 17.0; C: nt; D: nt; E: nt; F: 7.1
COc1ccc(C2=Nn3c(nnc3-c3ccccc3OC)SC2)cc1OCC1CC1
  A: 49.8*; B: -13.3; C: -6.9; D: -4.5; E: 5.0; F: -0.3
COc1ccc(C2=Nn3c(nnc3-c3ccccc3F)SC2)cc1OC1CCOC1 (stereo not drawn)
  A: 45.1*; B: -4.3; C: -1.7; D: -3.6; E: 7.5; F: 7.0
COc1ccc(OC)c(-c2nnc3n2N=C(c2ccc(OC)c(OC4CCCC4)c2)CS3)c1
  A: nt; B: 16.9; C: 0.9; D: -0.1; E: 1.1; F: 2.1
C[C@H](CO)N1C[C@H](C)[C@@H](CN(C)Cc2ccc(C(=O)O)cc2)Oc2ccc(NS(=O)(=O)c3ccc(F)cc3)cc2C1=O
  A: 18.2; B: 14.0; C: nt; D: nt; E: nt; F: 4.2
O=c1cc(-c2ccccc2)oc2ccc(Br)cc12
  A: 6.6; B: -14.4; C: -1.7; D: -1.7; E: 7.8*; F: 5.4
CCC(=O)NC1=C(Cl)C(=O)C(NC(=O)CC)=C(Cl)C1=O
  A: 28.9; B: -12.8; C: 4.5; D: 4.9; E: 8.6*; F: -1.2
CCC(=O)NC1=C(NC(C)c2ccccc2)C(=O)c2ccccc2C1=O (stereo not drawn)
  A: nt; B: 8.6; C: -2.8; D: 4.2; E: 0.5; F: nt
C[C@H]1CN=C(N(C)C)N1CC1CCCCC1
  A: 10.2; B: -15.1; C: 9.0; D: 0.7; E: 0.4; F: 6.6
C[C@H]1CN=C(N(C)C)N1CC1CCCC1
  A: 53.5*; B: -10.1; C: -3.0; D: -3.9; E: 0.5; F: 5.1
CSc1ccccc1C(=O)OCC(=O)Nc1cccnc1Cl
  A: 43.4*; B: -5.1; C: -2.0; D: 1.3; E: 0.3; F: 0.1
O=C(COC(=O)c1ccccc1O)Nc1cccnc1Cl
  A: 13.5; B: nt; C: 7.1; D: -2.7; E: -3.1; F: nt
NS(=O)(=O)c1ccc(NN=C2CCCCC2)c([N+](=O)[O-])c1
  A: -3.7; B: -12.4; C: -16.5; D: 11.1; E: 7.8*; F: 1.7

Profiles as entered above. Screens in order: INS-1E GSIS act, UUG fidelity, PDI turbidity, NR1D1 modulator, SMARCA2 act, ERp5 block
CSc1ccccc1C(=O)OCC(=O)Nc1cccnc1Cl in the list: 43.4*, -5.1, -2.0, 1.3, 0.3, 0.1
COc1ccc(C2=Nn3c(nnc3-c3ccccc3OC)SC2)cc1OCC1CC1 in the list: 49.8*, -13.3, -6.9, -4.5, 5.0, -0.3

From PubChem
